High-throughput results: PubChem, National Center for Advancing Translational Sciences (NCATS)
ClpP mod: qHTS Assay for Activators of ClpP. ATP-dependent Clp protease proteolytic subunit (Bacillus subtilis (strain 168)), P80244. purified B. subtilis ClpP, FRET peptide cleavage, 20 min. Potency, µM (series often up to 57.5 µM). 1.9% of 340,000 active. AID 651965, 2013; active = well fitted falling curve with a large enough effect; inconclusive = small, poorly fitted or top-dose-only effect; inactive = no such curve, though single readings can be large or run the other way; note: the source files actives as falling curves though it sought activators and does not explain the sign; nearly all actives have a fitted effect of over 65% in size
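Purified B. subtilis ClpP, 10 microg/mL final in Tris/HCl pH8 with KCl, BSA, glycerol and Tween-20, cleaved an Abz/nitrotyrosine-quenched decapeptide. Fluorescence (ex 320, em 430) was read at 0 and 20 min at room temperature. Delta was normalized to 5.8 microM ADEP and DMSO/no-enzyme controls.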
Nrf2 inh: blocks Nrf2 signaling; AID 504444; Potency, µM (titrated, usually from 46 µM), hits mostly inhibitors; A549 ARE-Fluc reporter, luciferase luminescence, 18-24 h; 2.1% of 360,000 active; note: nearly all actives have a fitted effect of over 60% in size
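Two sequential reads on A549 ARE_Fluc cells exposed to compound for 18-24 h: a CellTiter-Fluor fluorescence read for viability, then a luciferase luminescence read for Nrf2/ARE activity.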
p53 reactivation: restores transcriptional activity of mutant p53. H1299 p53-A138V BP100-luciferase reporter, luminescence, 24 h. Potency, µM (series often up to 92.2 µM), most hits filed as activators. 0.063% of 320,000 active. AID 504706; note: nearly all actives have a fitted effect of over 45% in size
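H1299 (p53-null), stable ts p53-A138V + BP100-Luc; 1000 cells/well, Opti-MEM/10% FBS; cpd 4 pt, 1:5; 24 h, 37 deg C, 5% CO2; detection reagent 10 min RT; luminescence.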
A549 viability: A549 cytotoxicity, counter-screen for Nrf2 inhibitors; A549 ARE-Fluc cells, CellTiter-Fluor viability, 18-24 h; Potency, µM (top dose mostly 46 µM), most hits filed as inhibitors; 0.16% of 390,000 active; AID 504648
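Cytotoxicity counterscreen: CellTiter-Fluor fluorescence was measured in A549 ARE_Fluc cells after 18-24 h of compound exposure in a concentration series. The subsequent BugLite luminescent read reports ARE-luciferase activity.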
Nrf2 activator: activates Nrf2 signaling | AREc32 ARE-luciferase reporter (MCF7-derived line), luminescence, 24 h | 0.31% of 410,000 active | AID 624171 | Potency, µM (series often up to 46.1 µM), hits mostly activators; note: nearly all actives have a fitted effect of over 65% in size
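Luminescent ARE reporter assay in AREc32_Fluc cells: overnight plating at 37 deg C, 24 hr compound incubation, Steady-Glo added, 30 min RT before reading.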
miR-21 reporter: miR-21 reporter, rising signal. HeLa miR-21 FLuc reporter, luciferase, 48 h. Potency, µM (titrated, usually from 38.3 µM). 340,000 tested, under 10 active. AID 2288; active = well fitted rising curve with a large enough effect; inconclusive = small, poorly fitted or top-dose-only effect; inactive = no such curve, though single readings can be large or run the other way;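 also: miR-21 action dims this reporter so a rising signal means less miR-21 action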
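HeLa miR-21-FLuc reporter line, endogenous miR-21; 2000 cells/well in DMEM/10% FBS; compound titration up to ~40uM final, 48 h, 37 degree Celsius; luciferase detection reagent, 15 min lysis, CCD luminescence.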
A number is an active result; ! = not active in a repeat. In the library only some 3.7% were active in any assay of this set; here they are far more common. Unless noted, calls come from the whole dose curve; as a rule, active = well fitted curve in the direction sought with a large enough effect; inconclusive = small, poorly fitted or top-dose-only effect, or another doubt; inactive = no such curve, though single readings can be large; an effect the other way counts as inactive or inconclusive.

What do the screens show for `Nc1ccc(C(=O)OCCCc2nc3ccccc3[nH]2)cc1`?
ClpP mod: 28µM; Nrf2 inh: inconclusive; p53 reactivation: inactive; A549 viability: inactive; Nrf2 activator: inactive; miR-21 reporter: inactive

How did COc1cc(C(=O)Nc2ccccc2N2CCCCC2)cc(OC)c1OC do in these assays?
ClpP mod: inactive; Nrf2 inh: inconclusive; p53 reactivation: inactive; A549 viability: inactive; Nrf2 activator: inactive; miR-21 reporter: inactive

Results for O=C(NC(=S)Nc1ccccc1N1CCCCC1)c1ccco1 ?
ClpP mod: inactive; Nrf2 inh: inactive; p53 reactivation: inconclusive; A549 viability: inactive; Nrf2 activator: inactive; miR-21 reporter: inactive

Results for COc1cc(C(=O)NC(=S)Nc2ccccc2N2CCCC2)cc(OC)c1OC ?
ClpP mod: inactive; Nrf2 inh: 18µM; p53 reactivation: inactive; A549 viability: inactive; Nrf2 activator: inactive; miR-21 reporter: inactive

Results for O=C(NC(=S)Nc1ccccc1Cl)c1ccco1 ?
Nrf2 inh: inconclusive; p53 reactivation: inconclusive; A549 viability: inactive; Nrf2 activator: 13µM; miR-21 reporter: inactive

Results for O=C(NC(=S)Nc1ccccc1N1CCCC1)c1ccco1 ?
Nrf2 inh: inactive; p53 reactivation: inactive; A549 viability: inactive; Nrf2 activator: 14µM; miR-21 reporter: inactive

Results for O=C(NC(=S)N(CCc1ccccc1)CCc1ccccc1)c1ccco1 ?
ClpP mod: inactive; Nrf2 inh: 18µM; p53 reactivation: inconclusive; A549 viability: inactive; Nrf2 activator: inconclusive; miR-21 reporter: inactive

Results for Cc1ccc(S(=O)(=O)N(CCc2ccccc2)CC(=O)Nc2ccc(Br)cc2)cc1 ?
ClpP mod: inactive; Nrf2 inh: inconclusive; A549 viability: inactive; Nrf2 activator: inactive; miR-21 reporter: inactive

Results for Cc1cc(C(Br)(Br)Br)nc2ccccc12 ?
ClpP mod: inactive

Results for N#CC(C#N)c1ccnc2ccccc12 ?
ClpP mod: inactive; Nrf2 activator: inactive

How did O=C(NC(NC(=S)Nc1ccccc1C(=O)O)C(Cl)(Cl)Cl)c1ccco1 (stereo not given) do in these assays?
ClpP mod: 28µM; Nrf2 inh: inactive; p53 reactivation: inactive; A549 viability: inactive; Nrf2 activator: inactive; miR-21 reporter: inactive

Results for Cc1ccc(-c2noc(-c3nnn(-c4ccc(Br)cc4F)c3C)n2)cc1 ?
ClpP mod: inactive; Nrf2 inh: inconclusive; A549 viability: inactive; Nrf2 activator: inactive; miR-21 reporter: inactive

How did COC(=O)C1=C(C)NC(=O)CC1c1cc2c(cc1Br)OCO2 (stereo not given) do in these assays?
ClpP mod: inactive; Nrf2 inh: inactive; p53 reactivation: inactive; A549 viability: inactive; Nrf2 activator: inactive; miR-21 reporter: inactive

What do the screens show for `CC1=C(C(=O)OC2CCCCCCC2)C(c2cc3c(cc2Br)OCO3)CC(=O)N1` (stereo not given)?
ClpP mod: inactive; Nrf2 inh: 21µM; p53 reactivation: inactive; A549 viability: inconclusive; Nrf2 activator: inactive; miR-21 reporter: inactive

What do the screens show for `O=C(CSc1nc2cc(Cl)ccc2s1)Nc1cccc(S(=O)(=O)N2CCOCC2)c1`?
ClpP mod: inactive; Nrf2 inh: 23µM; p53 reactivation: inactive; A549 viability: inactive; Nrf2 activator: inactive; miR-21 reporter: inactive

What do the screens show for `CCCc1nc2ccccc2c(C(=O)OCC(=O)Nc2ccc(S(=O)(=O)N3CCOCC3)cc2)c1CC`?
ClpP mod: inactive; Nrf2 inh: 23µM; p53 reactivation: inactive; A549 viability: inconclusive; Nrf2 activator: inactive; miR-21 reporter: inconclusive

Results for Cc1onc(-c2ccccc2Cl)c1C(=O)OCC(=O)Nc1cccc(S(=O)(=O)N2CCOCC2)c1 ?
Nrf2 inh: 18µM; p53 reactivation: inactive; A549 viability: inactive; Nrf2 activator: inactive; miR-21 reporter: inactive

Results for O=C(CSc1nc2ccccc2s1)Nc1ccc(Cl)c(S(=O)(=O)N2CCOCC2)c1 ?
ClpP mod: inactive; Nrf2 inh: inconclusive; p53 reactivation: inactive; A549 viability: inactive; Nrf2 activator: inactive; miR-21 reporter: inactive

What do the screens show for `O=C(CSc1ncnc2ccccc12)Nc1cccc(S(=O)(=O)N2CCOCC2)c1`?
Nrf2 inh: 16µM; p53 reactivation: inactive; A549 viability: inactive; Nrf2 activator: inactive; miR-21 reporter: inactive

How did Cc1ccc(Cl)cc1NC(=O)c1sc(-n2nc(C)c(Cc3ccc4c(c3)OCO4)c2C)nc1C do in these assays?
ClpP mod: inactive; Nrf2 inh: inactive; A549 viability: inactive; Nrf2 activator: inactive; miR-21 reporter: inactive

Results for O=C(N/N=C(\c1ccccc1)c1ccccn1)c1cccc([N+](=O)[O-])c1 ?
ClpP mod: inactive; Nrf2 inh: 9.2µM; p53 reactivation: inconclusive; A549 viability: inactive; Nrf2 activator: inactive; miR-21 reporter: inactive

How did CCOc1ccc(C(=O)N/N=C(\c2ccccc2)c2ccccn2)cc1 do in these assays?
ClpP mod: inactive; Nrf2 inh: 21µM; p53 reactivation: inactive; A549 viability: inconclusive; Nrf2 activator: inactive; miR-21 reporter: inactive

Results for C/C(=N\NC(=O)c1ccc(F)cc1)c1ccccn1 ?
ClpP mod: inactive; Nrf2 inh: inconclusive; p53 reactivation: inconclusive; A549 viability: inconclusive; Nrf2 activator: inactive; miR-21 reporter: inactive

Results for O=C(Nc1nc(-c2ccccc2)cs1)c1cccc([N+](=O)[O-])c1 ?
ClpP mod: inactive; Nrf2 inh: 8.2µM; p53 reactivation: inactive; A549 viability: inactive; Nrf2 activator: inactive; miR-21 reporter: inactive

How did CCCN1CCN(C(=S)Nc2ccccc2C(F)(F)F)CC1 do in these assays?
ClpP mod: inactive; Nrf2 inh: 16µM; p53 reactivation: inactive; A549 viability: inactive; Nrf2 activator: inactive; miR-21 reporter: inactive

Results for COc1cc(CSc2nnnn2-c2ccc(C)cc2)cc(OC)c1OC ?
ClpP mod: inactive; Nrf2 inh: 6.5µM; p53 reactivation: inactive; A549 viability: inactive; Nrf2 activator: inactive; miR-21 reporter: inactive

How did CCOC(=O)c1ccc(Nc2nc(N)c3cc(OC)c(OC)cc3n2)cc1 do in these assays?
ClpP mod: 32µM!; Nrf2 inh: inactive; p53 reactivation: inactive; A549 viability: inactive; Nrf2 activator: inactive; miR-21 reporter: inactive

What do the screens show for `COc1cc2nc(Nc3ccc(C)c(C)c3)nc(N)c2cc1OC`?
ClpP mod: inconclusive; Nrf2 inh: inactive; p53 reactivation: inactive; A549 viability: inconclusive; Nrf2 activator: inactive; miR-21 reporter: inactive

What do the screens show for `Cc1nn(C)c2c1c(C(F)(F)F)cc(=O)n2CC(=O)N1CCC(C)CC1`?
ClpP mod: inactive; Nrf2 inh: inactive; A549 viability: inactive; Nrf2 activator: inactive; miR-21 reporter: inactive
